Earlier results on 1 compound are cited in patent US5747524A, “Cannabinoid receptor antagonists” (Eli Lilly and Company, priority 1996, dated 1998).

Structures are written as SMILES.

For this series, the system named is CB-1 receptor. The note with it: in vivo and in vitro models; Rinaldi-Carmons et al. 1994; cited from earlier work.

`Cc1c(C(=O)NN2CCCCC2)nn(-c2ccc(Cl)cc2Cl)c1-c1ccc(Cl)cc1` [SR141716A]: the “Block of actions of cannabinoids and anandamide (in words)” value is “block the actions of both cannabinoids and anandamide in in vivo and in vitro models”.
